The list shows a part of the results, in another mix than the full data. The source made the active and inactive calls. Rule as the data show it: active = TR-FRET ratio above about 2300; inactive = the rest.

This experiment can be described thus: signal artefacts in PPARgamma/SRC-1 readout – biochemical, TR-FRET emission ratio, artefact control for PPARgamma SRC-1 recruitment agonists, primary screen (AID 1051). As to conditions: TR-FRET detection artefact counter-screen, at 8 µM, stronger effect = higher value.
`O=[N+]([O-])c1cc([N+](=O)[O-])c(-n2nnc3ccccc32)c([N+](=O)[O-])c1`: the TR-FRET ratio is inactive: 1650.
For the compound `CP(=O)(Nc1ccc(SC(F)(F)F)cc1)Oc1ccccc1` (stereo not given), the TR-FRET ratio is inactive: 1680.
As for `CCCOc1ccc(NP(C)(=O)Oc2ccc(Cl)cc2)cc1` (stereo not given), the TR-FRET ratio is inactive: 1660.
As for `CN1CCCCC1COC(=O)C1(O)c2ccccc2CCc2ccccc21` (stereo not given), the figure is inactive: 1580; as for `CC1=NCCc2c1[nH]c1ccccc21.O=[N+]([O-])c1cc([N+](=O)[O-])c(O)c([N+](=O)[O-])c1`, inactive: 2000; as for `CCOC(=O)c1ccc(NP(C)(=O)Oc2cc(C)cc(C)c2)cc1` (stereo not given), inactive: 1600.
Then `CP(=O)(Nc1cccc(Br)c1)Oc1ccccc1` (stereo not given), with inactive: 1950; and `CCN(CC)CCCOC(=O)C(O)(c1ccccc1)c1ccccc1`, with inactive: 1960; and `O=[N+]([O-])c1ccc2c(c1)C=Nc1ccccc1O2`, with inactive: 1830.
Turning to `CC(C)(C)c1ccc(OP(C)(=O)Nc2ccc(SC(F)(F)F)cc2)cc1` (stereo not given), the TR-FRET ratio was inactive: 1660.
As for `Cc1cccc(C)c1OP(C)(N)=O` (stereo not given), the figure is inactive: 1840.
Consider `Cc1cc(C)cc(OP(C)(N)=O)c1` (stereo not given), for which the TR-FRET ratio was inactive: 1850.
Then `COc1ccccc1OP(C)(=O)Nc1cc(Cl)ccc1C` (stereo not given), with inactive: 1840.
Then `COc1ccccc1OP(C)(=O)Nc1ccc(C)cc1` (stereo not given), with inactive: 1650; and `Cc1ccc(NP(C)(=O)Oc2ccccc2)c(C)c1` (stereo not given), with inactive: 1700; and `CCOC(=O)c1ccc(NP(C)(=O)Oc2ccccc2)cc1` (stereo not given), with inactive: 1780.
For the compound `CP(=O)(Nc1ccccc1Br)Oc1ccccc1` (stereo not given), the TR-FRET ratio is inactive: 1940.
As for `COc1ccccc1OP(C)(=O)Nc1ccccc1` (stereo not given), the figure is inactive: 1820; as for `Cc1cc(C)cc(OP(C)(=O)Nc2ccc(SC(F)(F)F)cc2)c1` (stereo not given), inactive: 1700; as for `Cc1cccc(C)c1OP(C)(=O)Nc1ccc(SC(F)(F)F)cc1` (stereo not given), inactive: 1750.
On to `CP(=O)(Oc1ccccc1)OC(c1ccccc1)C(F)(F)F` (stereo not given), for which the TR-FRET ratio is inactive: 1940.
Regarding `CCOC(=O)c1ccc(NP(C)(=O)Oc2ccc(OC)cc2)cc1` (stereo not given), the TR-FRET ratio was inactive: 1560.
Turning to `CCOP(C)(=S)SCC(=O)NC(C)C(=O)O` (stereo not given), the TR-FRET ratio is inactive: 2030.
`CCc1ccc(OP(C)(=O)Nc2cccnc2)cc1` (stereo not given): the TR-FRET ratio was inactive: 1760.
Then `COc1ccc(OP(C)(=O)Nc2ccc(Br)cc2)cc1` (stereo not given), with inactive: 2060; and `CN(C)C(=O)c1c([N+](=O)[O-])cc([N+](=O)[O-])cc1[N+](=O)[O-]`, with inactive: 2130; and `COc1ccccc1OP(C)(=O)Nc1ccccc1Br` (stereo not given), with inactive: 1610.
As for `CCOC(=O)c1ccc(NP(C)(=O)Oc2ccc(Cl)cc2)cc1` (stereo not given), the figure is inactive: 1860; as for `COc1ccc(OP(C)(=O)Nc2ccccc2Br)cc1` (stereo not given), inactive: 2030.
As for `Cc1cc(C)cc(OP(C)(=O)Nc2cccc(C(F)(F)F)c2)c1` (stereo not given), the TR-FRET ratio was inactive: 1740.
With `CP(=O)(OCCOc1ccccc1)OCCOc1ccccc1`, the TR-FRET ratio was inactive: 1770.
Regarding `CP(=O)(Nc1ccc(Cl)cc1Cl)Oc1ccccc1` (stereo not given), the TR-FRET ratio is inactive: 1830.
Then `O=[N+]([O-])c1cc([N+](=O)[O-])c(Nc2ccccn2)c([N+](=O)[O-])c1`, with inactive: 1780; and `CC(C)c1ccc(OP(C)(=O)Nc2ccc(SC(F)(F)F)cc2)cc1` (stereo not given), with inactive: 1860.
Then `O=C(OCCN1CCN(CCOCc2ccccc2)CC1)C(O)(c1ccccc1)c1ccccc1`, with inactive: 1560; and `CCOC(=O)c1ccc(NP(C)(=O)Oc2ccc(F)cc2)cc1` (stereo not given), with inactive: 1920; and `COc1ccc(OP(C)(=O)Nc2ccc(SC(F)(F)F)cc2)cc1` (stereo not given), with inactive: 1770.
Then `COc1ccc(NP(C)(=O)Oc2ccccc2OC)cc1` (stereo not given), with inactive: 1870.
Regarding `O=[N+]([O-])c1cc([N+](=O)[O-])c(NCC2CCS(=O)(=O)C2)c([N+](=O)[O-])c1` (stereo not given), the TR-FRET ratio is inactive: 2040.
Then `Cc1ccccc1NP(C)(=O)Nc1ccccc1C`, with inactive: 1700.

For the origin of these results see PubChem BioAssay AID1051 (The Scripps Research Institute Molecular Screening Center, 2008).
